Experimental data reported in DBAASP.
In brackets after ≈: the same amount, converted by molar mass. Blank lines part the entries; values can stand above or below the molecule they belong to.

Assays:
Assay in all cases: ≥ marks a high value that may be exact or a test limit, other limits are often not marked, values filed in µg/mL are converted to µM
[1] = system: Erwinia amylovora PMV 6076
[2] = system: Pseudomonas syringae pv. syringae EPS 94
[3] = system: Xanthomonas campestris pv. Vesicatoria 2133-2
Bacillus subtilis = system: Bacillus subtilis
Candida albicans = system: Candida albicans
Cryptococcus neoformans = system: Cryptococcus neoformans
Escherichia coli = system: Escherichia coli
Pseudomonas putida = system: Pseudomonas putida
Saccharomyces cerevisiae = system: Saccharomyces cerevisiae
Salmonella typhimurium = system: Salmonella typhimurium
Serratia marcescens = system: Serratia marcescens
Staphylococcus aureus = system: Staphylococcus aureus
Streptococcus mutans = system: Streptococcus mutans
Streptococcus pneumoniae = system: Streptococcus pneumoniae

MIC [1]: 1.77 µM (≈ 4.98 µg/mL) | MIC [2]: 3.54 µM (≈ 9.95 µg/mL)
Structure (SMILES): CC[C@H](C)[C@H](NC(=O)CNC(=O)[C@H](C)NC(=O)[C@@H]1CCCN1C(=O)CNC(=O)[C@H](C)NC(=O)[C@H](CC(C)C)NC(=O)[C@H](Cc1ccc(O)cc1)NC(=O)[C@H](CCCCN)NC(=O)[C@H](CC(C)C)NC(=O)[C@@H](NC(=O)[C@H](CCCCN)NC(=O)[C@H](CCCCN)NC(=O)[C@H](Cc1ccccc1)NC(=O)[C@H](CC(C)C)NC(=O)[C@H](CCCCN)NC(=O)[C@H](CCCCN)NC(=O)CN)[C@@H](C)CC)C(=O)NCC(=O)N[C@@H](CCCCN)C(=O)N[C@@H](Cc1ccccc1)C(=O)N[C@@H](CC(C)C)C(=O)N[C@@H](Cc1cnc[nH]1)C(=O)N[C@@H](CO)C(=O)N[C@@H](C)C(=O)N[C@@H](CCCCN)C(=O)O [GKKLFKKILKYLAGPAGIGKFLHSAK]

MIC [1]: 3.54 µM (≈ 11.1 µg/mL) | MIC [2]: 1.77 µM (≈ 5.56 µg/mL) | MIC [3]: 3.54 µM (≈ 11.1 µg/mL)
Structure (SMILES): CC[C@H](C)[C@H](NC(=O)[C@H](CCC(N)=O)NC(=O)[C@@H](NC(=O)[C@H](C)NC(=O)[C@H](CCC(N)=O)NC(=O)CNC(=O)[C@@H](NC(=O)[C@@H](NC(=O)[C@H](C)NC(=O)[C@@H](NC(=O)[C@H](C)NC(=O)[C@H](CC(C)C)NC(=O)[C@H](Cc1ccc(O)cc1)NC(=O)[C@H](CCCCN)NC(=O)[C@H](CC(C)C)NC(=O)[C@@H](NC(=O)[C@H](CCCCN)NC(=O)[C@H](CCCCN)NC(=O)[C@H](Cc1ccccc1)NC(=O)[C@H](CC(C)C)NC(=O)[C@H](CCCCN)NC(=O)[C@@H](N)CCCCN)[C@@H](C)CC)C(C)C)C(C)C)C(C)C)[C@@H](C)O)C(=O)N[C@@H](C)C(=O)N[C@@H](CCCCN)C(=O)N[C@@H](CCCCN)C(=O)N[C@@H](CC(=O)O)C(=O)N[C@@H](CCC(=O)O)C(=O)N[C@@H](CC(C)C)C(=O)O [KKLFKKILKYLAVAVVGQATQIAKKDEL]

MIC (Bacillus subtilis): 4.65 µM (≈ 8 µg/mL) | MIC (Candida albicans): 18.6 µM (≈ 32 µg/mL) | MIC (Cryptococcus neoformans): ≥ 37.2 µM | MIC (Escherichia coli): 4.65 µM (≈ 8 µg/mL) | MIC (Pseudomonas putida): 9.31 µM (≈ 16 µg/mL) | MIC (Saccharomyces cerevisiae): 18.6 µM (≈ 32 µg/mL) | MIC (Salmonella typhimurium): 2.33 µM (≈ 4 µg/mL) | MIC (Serratia marcescens): 4.65 µM (≈ 8 µg/mL) | MIC (Staphylococcus aureus): 9.31 µM (≈ 16 µg/mL) | MIC (Streptococcus mutans): 4.65 µM (≈ 8 µg/mL) | MIC (Streptococcus pneumoniae): 9.31 µM (≈ 16 µg/mL)
Structure (SMILES): CC(C)C[C@H](NC(=O)[C@H](CC(C)C)NC(=O)[C@H](CCCN=C(N)N)NC(=O)[C@H](Cc1cnc[nH]1)NC(=O)[C@@H](NC(=O)[C@H](CCCN=C(N)N)NC(=O)CNC(=O)[C@@H](NC(=O)[C@@H]1CCCN1C(=O)[C@H](Cc1ccccc1)NC(=O)[C@H](CCC(N)=O)NC(=O)[C@@H](N)CC(C)C)C(C)C)C(C)C)C(=O)N[C@@H](CCCN=C(N)N)C(=O)N[C@@H](CCCCN)C(=O)O [LQFPVGRVHRLLRK]

MIC [1]: 1.77 µM (≈ 5.03 µg/mL) | MIC [2]: 3.54 µM (≈ 10.1 µg/mL)
Structure (SMILES): CC[C@H](C)[C@H](NC(=O)CNC(=O)[C@H](C)NC(=O)[C@@H]1CCCN1C(=O)CNC(=O)[C@H](C)NC(=O)[C@H](CC(C)C)NC(=O)[C@H](Cc1ccc(O)cc1)NC(=O)[C@H](CCCCN)NC(=O)[C@H](CC(C)C)NC(=O)[C@@H](NC(=O)[C@H](CCCCN)NC(=O)[C@H](CCCCN)NC(=O)[C@H](Cc1ccccc1)NC(=O)[C@H](CC(C)C)NC(=O)[C@H](CCCCN)NC(=O)[C@H](CCCCN)NC(=O)[C@@H](N)CO)[C@@H](C)CC)C(=O)NCC(=O)N[C@@H](CCCCN)C(=O)N[C@@H](Cc1ccccc1)C(=O)N[C@@H](CC(C)C)C(=O)N[C@@H](Cc1cnc[nH]1)C(=O)N[C@@H](CO)C(=O)N[C@@H](C)C(=O)N[C@@H](CCCCN)C(=O)O [SKKLFKKILKYLAGPAGIGKFLHSAK]
